Test results from ChEMBL document CHEMBL4052667 (Bioorg Med Chem, 2017).

Species: Homo sapiens
Assay: Selectivity ratio of IC50 for HDAC1 (unknown origin) to IC50 for HDAC6 (unknown origin)

- Ratio IC50: 7
SMILES: O=C(Cc1ccc(CN2CCN(C(=O)c3cc(Cc4n[nH]c(=O)c5ccccc45)ccc3F)CC2)cc1)NO
